This note sets out measurements from publication PMC11507974, “Phytochemical Analysis, Antioxidant Activity and Bioassay-Guided Isolation of Acetylcholinesterase and Butyrylcholinesterase Inhibitors from Horsfieldia polyspherula Bark (Myristicaceae)” (Tropical Life Sciences Research, 2024).

The chains behind the UniProt entries cited, without tags or fusion partners. Residues count along the entry.
UniProt O42275, 24-633: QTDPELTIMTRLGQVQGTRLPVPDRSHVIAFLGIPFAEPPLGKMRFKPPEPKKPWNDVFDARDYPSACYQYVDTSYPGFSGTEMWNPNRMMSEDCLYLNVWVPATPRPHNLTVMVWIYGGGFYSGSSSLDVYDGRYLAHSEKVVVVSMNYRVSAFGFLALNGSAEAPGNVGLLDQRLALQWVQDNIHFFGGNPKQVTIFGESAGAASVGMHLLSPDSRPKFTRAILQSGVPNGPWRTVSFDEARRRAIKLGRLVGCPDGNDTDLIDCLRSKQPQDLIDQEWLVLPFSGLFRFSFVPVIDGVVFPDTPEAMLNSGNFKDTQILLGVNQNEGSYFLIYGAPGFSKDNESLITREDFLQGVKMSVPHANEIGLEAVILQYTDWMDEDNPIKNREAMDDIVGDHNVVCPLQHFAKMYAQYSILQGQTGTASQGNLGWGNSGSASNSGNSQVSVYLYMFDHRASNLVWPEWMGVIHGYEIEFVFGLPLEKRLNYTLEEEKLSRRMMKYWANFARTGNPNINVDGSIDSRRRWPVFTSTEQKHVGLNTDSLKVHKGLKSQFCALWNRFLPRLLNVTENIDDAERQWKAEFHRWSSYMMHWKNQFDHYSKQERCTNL

In this test the target is T1, AChE from Electrophorus electricus (electric eel) Type V-S (Electrophorus electricus, UniProt O42275).
T1 construct: purified AChE from Electrophorus electricus (electric eel) Type V-S (C2888-1K); purchased Sigma Aldrich, Germany C2888-1K
The test is classed as biochemical. The procedure: To assess the inhibitory activity of H. polyspherula extract, fractions and isolated compounds towards AChE and BuChE, Ellman’s spectrophotometric method was followed ([Ellman et al. 1961]) using purified AChE from Electrophorus electricus (electric eel) Type V-S (C2888-1K), and BuChE from equine serum lyophilized powder (C7512-1.2KU) all from Sigma Aldrich, Germany. The reaction took place in a final volume of 200 μL of a (140 μL to 160 μL) 100 mM phosphate-buffered solution at pH 7.5 for AChE and 8.0 for BuChE, containing (20 μL) 0.2 U of AChE or 0.1 U of BuChE. Inhibition curves were made by pre-incubating this mixture with six concentrations of each sample (20 μL) for 15 min. A sample with no compound (blank) was present to determine the 100% of enzyme activity. […] Changes in absorbance were detected at 412 nm in a 96 well spectrophotometric microplate reader (Bostch Biotek) after 30 min. […] Data are analysed using excel, graph pad prism 9.0.0 and expressed as means ± SD of at least three different experiments in triplicate. […]

Take `CNC(=O)Oc1ccc2c(c1)[C@]1(C)CCN(C)[C@@H]1N2C` [Eserine, reference compound]: the “% inhibition AChE” value (control, tested at 0.2 μM) is reported as 76.61 ± 1.31%. Where the note is “pure compounds (μM for the pure compound)”, this compound had an IC50 of 0.07 µM.
